# Measurements reported in ChEMBL document CHEMBL3232832, “Derivatives of dibenzothiophene for positron emission tomography imaging of α7-nicotinic acetylcholine receptors” (J Med Chem, 2013).
# Sequences of proteins named here, by UniProt entry; tags and fusion partners are left off.
# UniProt Q05941, whole entry: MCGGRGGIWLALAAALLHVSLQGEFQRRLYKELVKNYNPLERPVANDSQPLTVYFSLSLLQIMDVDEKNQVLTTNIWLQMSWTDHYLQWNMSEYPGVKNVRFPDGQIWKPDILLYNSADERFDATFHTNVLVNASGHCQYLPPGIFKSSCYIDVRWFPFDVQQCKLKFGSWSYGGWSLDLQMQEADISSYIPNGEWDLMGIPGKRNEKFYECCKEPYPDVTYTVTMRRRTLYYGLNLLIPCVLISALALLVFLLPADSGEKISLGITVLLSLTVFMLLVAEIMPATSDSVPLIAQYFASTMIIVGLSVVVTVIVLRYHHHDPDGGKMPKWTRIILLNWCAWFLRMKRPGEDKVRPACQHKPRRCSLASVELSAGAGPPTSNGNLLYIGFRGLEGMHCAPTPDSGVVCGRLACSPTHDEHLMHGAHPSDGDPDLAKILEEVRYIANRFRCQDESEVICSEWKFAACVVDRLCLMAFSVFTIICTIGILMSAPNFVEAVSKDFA
# Target: Neuronal acetylcholine receptor subunit alpha-7 (Rattus norvegicus, UniProt Q05941)
# Assay: Displacement of [125I]alpha-bungarotoxin from Sprague-Dawley rat brain alpha7-nAChR after 3 hrs
smiles,measurement,value
O=C(Oc1ccc([76Br])cc1)N1CCN2CCC1CC2,Ki,24.9 nM
